# Where “and” joins values, the source holds several entries; their conditions need not be identical. Identical values can stand only once. Like-named read-outs stand apart in the source and are kept apart here.
# Amino acid sequences for entries named in this document (tags omitted). A change or cut given only in a name is not applied to a line headed by its entry. Chains listed by the source or under a name are the forms on record and can include a tag or linker.
# UniProt P08912, whole entry: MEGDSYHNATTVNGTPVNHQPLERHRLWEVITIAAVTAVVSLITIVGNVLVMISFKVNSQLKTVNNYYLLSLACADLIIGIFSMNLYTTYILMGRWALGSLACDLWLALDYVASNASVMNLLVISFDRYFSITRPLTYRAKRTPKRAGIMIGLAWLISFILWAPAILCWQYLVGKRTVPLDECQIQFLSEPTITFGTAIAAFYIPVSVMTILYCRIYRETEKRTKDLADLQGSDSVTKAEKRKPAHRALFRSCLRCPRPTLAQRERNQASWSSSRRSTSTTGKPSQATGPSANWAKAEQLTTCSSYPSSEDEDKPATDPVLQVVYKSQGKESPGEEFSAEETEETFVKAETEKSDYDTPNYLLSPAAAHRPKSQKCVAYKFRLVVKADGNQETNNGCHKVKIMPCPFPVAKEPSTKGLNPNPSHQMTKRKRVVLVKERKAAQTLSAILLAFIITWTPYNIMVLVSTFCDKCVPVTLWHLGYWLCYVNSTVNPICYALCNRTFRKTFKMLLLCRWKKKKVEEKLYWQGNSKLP
# UniProt P08173, whole entry L190F: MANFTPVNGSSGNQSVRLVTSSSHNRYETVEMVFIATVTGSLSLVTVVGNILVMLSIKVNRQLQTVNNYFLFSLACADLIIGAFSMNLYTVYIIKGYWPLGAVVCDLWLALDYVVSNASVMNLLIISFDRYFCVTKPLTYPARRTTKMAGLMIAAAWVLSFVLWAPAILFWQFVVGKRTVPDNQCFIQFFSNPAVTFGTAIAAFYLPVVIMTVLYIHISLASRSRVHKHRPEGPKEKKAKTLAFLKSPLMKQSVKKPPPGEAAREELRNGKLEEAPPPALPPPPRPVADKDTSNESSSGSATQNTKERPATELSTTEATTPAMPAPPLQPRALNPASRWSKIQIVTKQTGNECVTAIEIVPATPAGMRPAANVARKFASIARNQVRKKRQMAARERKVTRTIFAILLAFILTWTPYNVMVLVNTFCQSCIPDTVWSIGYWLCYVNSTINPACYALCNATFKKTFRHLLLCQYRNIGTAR
# UniProt P08173, whole entry: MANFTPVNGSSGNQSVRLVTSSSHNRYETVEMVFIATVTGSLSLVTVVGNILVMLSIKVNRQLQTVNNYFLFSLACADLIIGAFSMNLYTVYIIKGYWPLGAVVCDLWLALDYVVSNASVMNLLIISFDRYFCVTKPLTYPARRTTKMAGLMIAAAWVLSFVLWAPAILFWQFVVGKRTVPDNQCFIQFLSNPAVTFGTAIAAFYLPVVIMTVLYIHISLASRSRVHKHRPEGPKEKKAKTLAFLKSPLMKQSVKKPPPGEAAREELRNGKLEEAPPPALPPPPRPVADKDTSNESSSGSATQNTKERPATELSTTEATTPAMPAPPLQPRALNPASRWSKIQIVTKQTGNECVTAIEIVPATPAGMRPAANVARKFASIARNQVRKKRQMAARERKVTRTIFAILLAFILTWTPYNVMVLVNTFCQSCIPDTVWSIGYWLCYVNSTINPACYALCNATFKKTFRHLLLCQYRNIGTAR
# UniProt P11229: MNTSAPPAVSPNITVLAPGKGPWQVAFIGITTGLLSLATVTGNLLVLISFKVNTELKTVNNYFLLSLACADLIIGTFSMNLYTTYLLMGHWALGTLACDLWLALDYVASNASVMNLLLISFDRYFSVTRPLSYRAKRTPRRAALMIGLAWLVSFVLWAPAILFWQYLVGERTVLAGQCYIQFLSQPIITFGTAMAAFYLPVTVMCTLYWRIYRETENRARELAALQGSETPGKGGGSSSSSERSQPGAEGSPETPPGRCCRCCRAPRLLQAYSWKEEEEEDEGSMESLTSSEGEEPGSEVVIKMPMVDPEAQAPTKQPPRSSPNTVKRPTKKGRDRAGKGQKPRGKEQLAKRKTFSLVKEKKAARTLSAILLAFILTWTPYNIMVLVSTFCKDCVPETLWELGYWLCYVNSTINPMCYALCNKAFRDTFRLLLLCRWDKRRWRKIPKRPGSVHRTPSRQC
# UniProt P08172, other isoform, or with tags, fused parts or gaps: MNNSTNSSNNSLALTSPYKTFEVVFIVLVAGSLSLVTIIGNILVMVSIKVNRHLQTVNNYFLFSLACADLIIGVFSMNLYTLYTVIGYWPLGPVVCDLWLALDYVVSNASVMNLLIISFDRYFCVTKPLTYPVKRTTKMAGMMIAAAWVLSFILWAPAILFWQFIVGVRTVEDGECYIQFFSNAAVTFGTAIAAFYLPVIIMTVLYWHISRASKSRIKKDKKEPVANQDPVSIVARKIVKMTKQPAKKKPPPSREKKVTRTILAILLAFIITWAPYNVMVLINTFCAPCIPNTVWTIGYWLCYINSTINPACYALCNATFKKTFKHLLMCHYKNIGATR
# Assays:
# M5 mAChR = M5 mAChR (Homo sapiens, UniProt P08912); test: pERK1/pERK2 signaling assay (AlphaScreen SureFire), CHO FlpIn cells; type: cell-based; conditions: first set of experiments
# M4 L190F mAChR = M4 L190F mAChR (Homo sapiens, UniProt P08173, L190F); test: as above; type: cell-based; conditions: second set of experiments
# M4 mAChR = M4 mAChR (Homo sapiens, UniProt P08173); test: as above
# M1 mAChR = M1 mAChR (Homo sapiens, UniProt P11229); conditions: first set of experiments
# M2 mAChR = M2 mAChR (Homo sapiens, UniProt P08172); conditions: for Figure 4a normalised binding, G+: M2, G+; for Figure 4a normalised binding, G-: M2, G-; for Fraction of receptors in a G protein-dependent high-affinity state: M2 mAChR
# [1] = log[Xano] M -4, individual experiments
# [2] = log[Xano] M -4.5, individual experiments
# [3] = log[Xano] M -5, individual experiments
# [4] = log[Xano] M -6, individual experiments
# [5] = log[Xano] M -7, individual experiments
# [6] = log[Xano] M -8, individual experiments
smiles,measurement,setting,value
"CC(=O)OCC[N+](C)(C)C [Acetylcholine, acetylcholine]","Efficacy corrected for receptor expression levels (LogtC), operational model, pERK1/2",M5 mAChR,3.43 ± 0.16
same,"Efficacy corrected for receptor expression levels (LogtC), operational model, pERK1/2",M4 L190F mAChR,3.82 ± 0.14
same,"Efficacy corrected for receptor expression levels (LogtC), operational model, pERK1/2",M4 mAChR; first set of experiments (top 5 rows),2.94 ± 0.10
same,"Efficacy corrected for receptor expression levels (LogtC), operational model, pERK1/2",M4 mAChR; second set of experiments (bottom 4 rows),3.59 ± 0.08
"CCCCCCOc1nsnc1C1=CCCN(C)C1 [Xanomeline, xanomeline]",Emax pERK1/2,M1 mAChR,79 ± 5 % FBS stimulation
same,"Figure 4a normalised binding, G+",M2 mAChR; [1],5.146 and 9.812 and 8.929
same,"Figure 4a normalised binding, G+",M2 mAChR; [2],1.434 and 8.6224 and 4.545
same,"Figure 4a normalised binding, G+",M2 mAChR; [3],0 and -2.081 and 19.1558
same,"Figure 4a normalised binding, G+",M2 mAChR; [4],20.6664 and 27.0565 and 26.9481
same,"Figure 4a normalised binding, G+",M2 mAChR; [5],54.5761 and 40.4221
same,"Figure 4a normalised binding, G+",M2 mAChR; [6],97.849 and 52.2299 and 31.9805
same,"Figure 4a normalised binding, G-",M2 mAChR; [1],-2.951 and -0.531 and -4.32
same,"Figure 4a normalised binding, G-",M2 mAChR; [2],0.8048 and 6.0177 and -5.832
same,"Figure 4a normalised binding, G-",M2 mAChR; [3],5.298 and 13.6283 and -1.512
same,"Figure 4a normalised binding, G-",M2 mAChR; [4],35.5466 and 54.5133 and 82.5054
same,"Figure 4a normalised binding, G-",M2 mAChR; [5],87.9276 and 98.2301 and 107.775
same,"Figure 4a normalised binding, G-",M2 mAChR; [6],100 and 75.5752
same,Energy of state RL (ternary complex model),"M2 mAChR; M2, relative to R = 0",-8.151 kcal/mol
same,Energy of state RLG (ternary complex model),"M2 mAChR; M2, relative to R = 0",-24.4535 kcal/mol
same,Fraction of receptors in a G protein-dependent high-affinity state,M2 mAChR; Receptor : G protein Molar Ratio 1:0,0.00 ± 0.27
same,Fraction of receptors in a G protein-dependent high-affinity state,M2 mAChR; Receptor : G protein Molar Ratio 1:500,0.00 ± 0.29
same,Fraction of receptors in a G protein-dependent high-affinity state,M2 mAChR; Receptor : G protein Molar Ratio 1:1000,0.17± 0.33
same,Fraction of receptors in a G protein-dependent high-affinity state,M2 mAChR; Receptor : G protein Molar Ratio 1:2000,0.59 ± 0.60
same,"pKI high (high-affinity state, Gi1-receptor complex)","M2 mAChR; M2 nanodiscs, Receptor : G protein molar ratio 1:1000",7.10 ± 0.94

# Reference: article PMC10299909 (2023)
